Reference: publication PMC3795262 (2013)

Tests used:
[1] = target: T1, Recombinant human heavy chain 2 of inter-α-inhibitor (human, UniProt P19823 55-702); assay: SPR; 10 mM EDTA
T1 chain: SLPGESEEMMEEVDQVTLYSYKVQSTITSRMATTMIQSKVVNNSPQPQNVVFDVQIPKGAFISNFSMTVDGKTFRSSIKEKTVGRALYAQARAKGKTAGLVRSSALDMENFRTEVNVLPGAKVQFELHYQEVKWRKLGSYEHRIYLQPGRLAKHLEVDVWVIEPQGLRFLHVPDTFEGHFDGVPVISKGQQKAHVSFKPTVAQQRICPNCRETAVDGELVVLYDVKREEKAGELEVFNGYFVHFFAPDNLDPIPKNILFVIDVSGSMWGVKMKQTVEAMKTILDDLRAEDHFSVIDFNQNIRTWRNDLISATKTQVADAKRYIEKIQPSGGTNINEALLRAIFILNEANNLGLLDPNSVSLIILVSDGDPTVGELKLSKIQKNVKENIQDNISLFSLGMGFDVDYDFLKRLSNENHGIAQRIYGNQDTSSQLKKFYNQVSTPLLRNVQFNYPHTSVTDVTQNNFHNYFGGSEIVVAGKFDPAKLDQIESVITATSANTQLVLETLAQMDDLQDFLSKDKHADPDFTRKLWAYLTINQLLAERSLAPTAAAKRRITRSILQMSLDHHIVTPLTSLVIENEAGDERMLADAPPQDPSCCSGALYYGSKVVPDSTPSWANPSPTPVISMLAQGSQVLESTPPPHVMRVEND

[2] = target: T2, Recombinant human heavy chain 1 of inter-α-inhibitor (human, UniProt P19827 35-672); assay: SPR; 10 mM EDTA
T2 chain: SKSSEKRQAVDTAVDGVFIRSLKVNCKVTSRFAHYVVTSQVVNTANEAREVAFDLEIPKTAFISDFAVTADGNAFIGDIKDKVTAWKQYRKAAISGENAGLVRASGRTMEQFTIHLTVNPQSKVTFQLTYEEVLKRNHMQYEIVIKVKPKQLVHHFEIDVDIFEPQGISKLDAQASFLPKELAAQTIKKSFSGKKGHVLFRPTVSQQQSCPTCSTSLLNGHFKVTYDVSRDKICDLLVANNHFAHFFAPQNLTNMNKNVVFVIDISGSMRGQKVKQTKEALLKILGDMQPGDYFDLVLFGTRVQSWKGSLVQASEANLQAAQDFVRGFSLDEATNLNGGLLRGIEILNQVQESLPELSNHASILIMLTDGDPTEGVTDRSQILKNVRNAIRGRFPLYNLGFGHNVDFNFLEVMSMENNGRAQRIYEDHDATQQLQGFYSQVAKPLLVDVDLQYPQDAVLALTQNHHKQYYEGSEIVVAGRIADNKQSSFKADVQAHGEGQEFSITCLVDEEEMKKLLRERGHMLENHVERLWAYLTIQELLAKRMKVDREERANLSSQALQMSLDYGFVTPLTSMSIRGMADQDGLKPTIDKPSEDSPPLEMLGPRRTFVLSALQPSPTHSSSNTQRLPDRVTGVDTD

[3] = target: T3, Recombinant human heavy chain 3 (human, UniProt Q06033 35-651); assay: SPR; 10 mM EDTA
T3 chain: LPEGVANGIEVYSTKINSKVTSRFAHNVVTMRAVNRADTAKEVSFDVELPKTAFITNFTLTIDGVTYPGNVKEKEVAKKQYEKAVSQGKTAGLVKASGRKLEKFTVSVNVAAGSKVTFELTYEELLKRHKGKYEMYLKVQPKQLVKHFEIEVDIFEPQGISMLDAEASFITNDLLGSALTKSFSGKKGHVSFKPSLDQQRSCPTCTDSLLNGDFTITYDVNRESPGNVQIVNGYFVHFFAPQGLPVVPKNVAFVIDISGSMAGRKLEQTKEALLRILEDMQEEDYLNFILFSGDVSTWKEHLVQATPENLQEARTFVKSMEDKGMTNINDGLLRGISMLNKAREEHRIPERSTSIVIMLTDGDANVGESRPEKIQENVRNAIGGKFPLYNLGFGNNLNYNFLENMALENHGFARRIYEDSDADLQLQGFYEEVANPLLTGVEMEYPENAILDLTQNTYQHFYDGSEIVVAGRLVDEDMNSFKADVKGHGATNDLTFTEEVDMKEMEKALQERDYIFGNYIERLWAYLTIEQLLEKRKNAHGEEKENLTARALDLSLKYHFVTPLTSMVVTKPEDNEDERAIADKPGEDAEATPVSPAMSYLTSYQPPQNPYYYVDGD

[4] = target: T1, Recombinant human heavy chain 2 of …; assay: SPR; 1 mM MgCl2 and 1 mM CaCl2
[5] = target: T2, Recombinant human heavy chain 1 of …; assay: SPR; 1 mM MgCl2 and 1 mM CaCl2
[6] = target: T3, Recombinant human heavy chain 3; assay: SPR; 1 mM MgCl2 and 1 mM CaCl2

B1: Full-length recombinant human TSG-6 (secreted product of tumor necrosis factor-stimulated gene-6) (natural protein)
chain: WGFKDGIFHNSIWLERAAGVYHREARSGKYKLTYAEAKAVCEFEGGHLATYKQLEAARKIGFHVCAAGWMAKGRVGYPIVKPGPNCGFGKTGIIDYGIRLNRSERWDAYCYNPHAKECGGVFTDPKQIFKSPGFPNEYEDNQICYWHIRLKYGQRIHLSFLDFDLEDDPGCLADYVEIYDSYDDVHGFVGRYCGDELPDDIISTGNVMTLKFLSDASVTAGGFQIKYVAMDPVSKSSQGKNTSTTSTGNKNFLAGRFSHL
B1 was tested, and the Kd [1] was 8.9 nM, the Kd [2] was 7.4 nM and the Kd [3] was 8.3 nM. For the same binder, the Kd [4] was 6.5 nM, the Kd [5] was 6.3 nM and the Kd [6] was 6.5 nM.
